# Assay results as given in patent US20220018849A1, “SERINE HYDROLASE PROFILING ASSAY IN BIOTHERAPEUTICS” (Merck Sharp & Dohme Corp., priority 2020, published 2022).
# System: serine hydrolases
# Experiment: Activity-based chemical proteomics approach (fluorophosphonate probe enrichment, LC-MS/MS)
# Details: HCCF sample from mAb1; compared with DMSO or control probe
# Protocol: Harvest cell culture fluid (HCCF) and products from the first ion-exchange column (IEXP)) in downstream purification were used for activity-based proteomics testing. HCCF from Chinese hamster ovary (CHO) cells from fed-batch production of mAbs was diluted with 50 mM Tris (pH 8) to 2 mg/mL. IEXP samples were diluted to 10 mg/mL. Fluorophosphonate (FP)-containing probes were dissolved in dirnethyl sulfoxide (DMSO) to make 0.1 mM stock solution. For each HCCF or IEXP sample (500 μL), 20 μL of chemical probes or control DMSO was added to make a final mix concentration of 2 μM. All samples were incubated at room temperature for 2 hours with constant mixing on a rotator. After reaction, to each sample was added 1000 μL of ice-cold methanol/acetone (50:50) on ice for 30 minutes to remove free probes. The precipitated proteins were collected via centrifugation at 20,000 g for 15 minutes at 4° C. The pellet was washed with 1 mL of ice-cold methanol/acetone solution once and dried under N2 gas. The remaining pellet was re-dissolved in 1 ml of sample suspension buffer (2M Urea, 1% SDS, 50 mM Tris, pH 8). For each sample, 60 μL of Pierce™ agarose beads were added before incubation at room temperature for 1 hour while constantly mixing on a rotator. […]
compound,measurement,value
CCOP(=O)(F)CCCCCCCCCC(=O)NCCCCCNC(=O)CCCC[C@@H]1SC[C@@H]2NC(=O)N[C@@H]21 (stereo partly shown),number of known lipases and esterases combined significantly enriched,More than 10
